Data: patent publication US20170372030A9 (published 2017)

Sequences of proteins named here, by UniProt entry; tags and fusion partners are left off.
UniProt P14416, whole entry: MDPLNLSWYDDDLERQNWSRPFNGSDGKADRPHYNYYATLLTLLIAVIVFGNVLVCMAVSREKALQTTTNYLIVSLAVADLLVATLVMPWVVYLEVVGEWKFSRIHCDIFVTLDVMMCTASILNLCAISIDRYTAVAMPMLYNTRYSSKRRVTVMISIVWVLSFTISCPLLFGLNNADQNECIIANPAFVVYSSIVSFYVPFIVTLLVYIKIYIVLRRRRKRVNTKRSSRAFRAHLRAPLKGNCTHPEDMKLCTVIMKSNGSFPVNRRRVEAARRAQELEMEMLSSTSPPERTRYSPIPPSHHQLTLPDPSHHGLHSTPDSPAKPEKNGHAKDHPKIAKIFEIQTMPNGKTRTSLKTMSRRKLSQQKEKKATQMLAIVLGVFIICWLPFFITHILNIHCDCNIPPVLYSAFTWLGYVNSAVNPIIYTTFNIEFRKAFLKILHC

Columns and labels:
D2-R [1] = target: T1, D2-R (Homo sapiens, UniProt P14416); test: Drug and tracer binding affinity and on/off rates at the D2-R (Table 1); settings: read-out: Koff (sec^−1)
D2-R [2] = target: T1, D2-R; settings: cited from earlier work

SMILES	koff (D2-R [1]) [s⁻¹]	pKd (D2-R [2]; at the D2-R)	pKd (D2-R [2]; read-out: affinity of tracer for the D2-R, tracer)
Cc1nc2n(c(=O)c1CCN1CCC(c3noc4cc(F)ccc34)CC1)CCCC2O (stereo not drawn) [Paliperidone]	0.000447		
CCN1CCC[C@H]1CNC(=O)c1c(O)c(Cl)cc(Cl)c1OC [Raclopride]		7.05	7.02

pKd: −log10 of the molar value. Read-outs that look alike come from different tables or passages of the source.
